pIC50: −log10 of the molar value.
These compounds were tested against recombinant human GST-SYK (Homo sapiens, UniProt P43405) (assay: Homogeneous Time-Resolved Fluorescence (HTRF) assay for the recombinant human Syk enzyme). Conditions: read-out: rhSYK Activity, IC50 given as class symbols, tested form: TFA salt.
Assay type: biochemical

In the case of Cc1cc(Nc2nccc(C(F)(F)F)n2)cc(-c2cncc(C(=O)NC3CC3)c2)c1, the pIC50 was > 7.00.

Same assay, conditions: read-out: rhSYK Activity, IC50 given as class symbols, tested form: TFA salt, formate

Cc1cc(Nc2nccc(C(F)(F)F)n2)cc(-c2cncc(N3CCCNC(=O)C3)c2)c1 was tested, and the pIC50 was > 7.00.

Same assay, conditions: read-out: rhSYK Activity, IC50 given as class symbols, tested form: formate

Cc1cc(Nc2nccc(C(F)(F)F)n2)cc(-c2cncc(N3CCOCC3)c2)c1 and Cc1cc(Nc2nccc(C(F)(F)F)n2)cc(-c2cncc(N3CCN(C)CC3)c2)c1 cannot be ordered by pIC50: > 7.00 for the first, > 7.00 for the second.

Cc1cc(Nc2nccc(C(F)(F)F)n2)cc(-c2cncc(Nc3ccncc3)c2)c1 and Cc1cc(Nc2nccc(C(F)(F)F)n2)cc(-c2cncc(NCc3ccncc3)c2)c1 cannot be ordered by pIC50: > 7.00 for the first, > 7.00 for the second.

Cc1cc(Nc2nccc(C(F)(F)F)n2)cc(-c2cncc(N3CCC(O)C3)c2)c1 (stereo not drawn) and Cc1cc(Nc2nccc(C(F)(F)F)n2)cc(-c2cncc(N3CC(O)C3)c2)c1 cannot be ordered by pIC50: > 7.00 for the first, > 7.00 for the second.

Cc1cc(Nc2nccc(C(F)(F)F)n2)cc(-c2cncc(N3CCCC34CCCNC4=O)c2)c1 (stereo not drawn) and Cc1cc(Nc2nccc(C(F)(F)F)n2)cc(-c2cncc(N3CCCC34CCNC4=O)c2)c1 (stereo not drawn) cannot be ordered by pIC50: > 7.00 for the first, > 7.00 for the second.

Cc1cc(Nc2nccc(C(F)(F)F)n2)cc(-c2cncc(N3CCNC(=O)C3(C)C)c2)c1 and Cc1cc(Nc2nccc(C(F)(F)F)n2)cc(-c2cncc(N3CCNC(=O)C3)c2)c1 cannot be ordered by pIC50: > 7.00 for the first, > 7.00 for the second.

Compared with Cc1cc(Nc2nccc(C(F)(F)F)n2)cc(-c2cncc(Nc3ccon3)c2)c1, Cc1cc(Nc2nccc(C(F)(F)F)n2)cc(-c2cncc(N3CCN(C)C(=O)C3)c2)c1 is higher in pIC50: 6.00 to 7.00 for the first, > 7.00 for the second.

Cc1cc(Nc2nccc(C(F)(F)F)n2)cc(-c2cncc(N3CCC(C(N)=O)CC3)c2)c1 and Cc1cc(Nc2nccc(C(F)(F)F)n2)cc(-c2cncc(N3CCNC(=O)CC3)c2)c1 cannot be ordered by pIC50: > 7.00 for the first, > 7.00 for the second.

For Cc1cc(Nc2nccc(C(F)(F)F)n2)cc(-c2cncc(N3CCC4(CC3)OCCO4)c2)c1, the pIC50 was > 7.00.

Same assay, conditions: read-out: rhSYK Activity, IC50 given as class symbols, tested form: free base

For COC(=O)C1CCC(O)(c2cc(-c3cc(C)cc(Nc4nccc(C(F)(F)F)n4)c3)ccn2)CC1(C)C (stereo not drawn), the pIC50 was 6.00 to 7.00.

Reference: patent US9376418B2, “Substituted pyridine spleen tyrosine kinase (SYK) inhibitors” (Merck Sharp & Dohme Corp., priority 2012, dated 2016)
